This test has as its system HEK293 Gαq/Gα11-null cells (endogenous muscarinic M3 receptors). Type of test: cell-based, human.

With `C[N+](C)(C)CCOC(N)=O` [carbachol], the “DMR response in words” value is on record as “unresponsive”.

The values are drawn from paper PMC7794379, “Thioesterase-mediated side chain transesterification generates potent Gq signaling inhibitor FR900359” (Nature Communications, 2021).
